Target: BDNF/NT-3 growth factors receptor (Homo sapiens, UniProt Q16620)

The chains behind the UniProt entries cited, without tags or fusion partners.
UniProt Q16620, whole entry: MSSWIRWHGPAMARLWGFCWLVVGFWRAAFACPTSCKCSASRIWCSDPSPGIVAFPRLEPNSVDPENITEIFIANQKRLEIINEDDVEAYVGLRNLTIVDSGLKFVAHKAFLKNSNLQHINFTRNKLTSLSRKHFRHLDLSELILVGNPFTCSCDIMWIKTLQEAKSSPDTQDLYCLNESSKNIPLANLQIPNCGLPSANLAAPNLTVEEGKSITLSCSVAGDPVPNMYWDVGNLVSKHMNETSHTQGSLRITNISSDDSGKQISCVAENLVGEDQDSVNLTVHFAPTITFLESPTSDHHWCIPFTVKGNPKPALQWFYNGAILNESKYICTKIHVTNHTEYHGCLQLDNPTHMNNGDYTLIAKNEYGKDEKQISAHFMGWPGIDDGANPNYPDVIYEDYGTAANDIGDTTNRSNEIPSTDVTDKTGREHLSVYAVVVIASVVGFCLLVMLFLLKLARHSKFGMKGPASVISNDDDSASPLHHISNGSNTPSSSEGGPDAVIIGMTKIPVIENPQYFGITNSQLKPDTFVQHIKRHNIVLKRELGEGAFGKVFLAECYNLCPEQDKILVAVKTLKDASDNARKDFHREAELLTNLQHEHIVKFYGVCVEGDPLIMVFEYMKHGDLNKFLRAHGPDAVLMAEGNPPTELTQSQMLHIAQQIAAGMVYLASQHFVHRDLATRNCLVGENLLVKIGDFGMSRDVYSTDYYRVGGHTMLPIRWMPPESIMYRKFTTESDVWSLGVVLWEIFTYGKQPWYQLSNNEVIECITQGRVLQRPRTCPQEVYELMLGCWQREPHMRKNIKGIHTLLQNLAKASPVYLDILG

- Ki: 23 nM
SMILES: C[C@H]1Oc2cc(cnc2N)-c2c(nn(C)c2C#N)CN(C)C(=O)c2ccc(F)cc21 [LORLATINIB]

Reference: ChEMBL document CHEMBL3286195, “Discovery of (10R)-7-amino-12-fluoro-2,10,16-trimethyl-15-oxo-10,15,16,17-tetrahydro-2H-8,4-(metheno)pyrazolo[4,3-h][2,5,11]-benzoxadiazacyclotetradecine-3-carbonitrile (PF-06463922), a macrocyclic inhibitor of anaplastic lymphoma kinase (ALK) and c-ros oncogene 1 (ROS1) with preclinical brain …” (J Med Chem, 2014)
